Source: patent publication US20180028478A1, “ANTIVIRAL COMPOSITIONS DIRECTED AGAINST THE NUCLEOPROTEIN OF INFLUENZA VIRUSES” (priority 2011, published 2018)

System: H1N1 virus (wsn/33)
Format: cell-based, Influenza A H1N1 wsn/33

`COc1ccc2cc(C(C)C(=O)O)ccc2c1` (stereo not shown) [Naproxen] was tested, and the Protection % was 48 ± 2% and 47 ± 2%.

Several values for one entry are separate records, joined by “and”; a condition that tells them apart may be missing. Equal values may be shown once.
